The text below walks through data of ChEMBL document CHEMBL5579863, “Galectin-8N-Selective 4-Halophenylphthalazinone-Galactals Double π-Stack in a Unique Pocket” (ACS Med Chem Lett, 2024).

A short description of this series: in vitro. The settings on record: PAMPA.

As usually defined, the Papp is a coefficient for how fast a substance crosses the barrier. Lower therefore signals slow passage. The molecule `O=c1c2ccccc2c(-c2ccccc2)nn1CO[C@@H]1C=CO[C@H](CO)[C@@H]1O` gave a Papp at 5 h, 100 µM of more than 5 ×10⁻⁶ cm/s.

For `O=c1c2ccccc2cnn1CO[C@@H]1C=CO[C@H](CO)[C@@H]1O`, the apparent permeability (Papp) at 5 h, 100 µM was more than 5 ×10⁻⁶ cm/s.
